In patent publication US8580321B2, “Method for reducing the effects of chemotherapy using flagellin related polypeptides” (priority 2003, dated 2013):

Tested on: NIH Swiss mice treated with cisplatinum
Assay: Cisplatinum toxicity (weight loss, viability, behavior) in NIH Swiss mice
Conditions: 2×MTD, majority of mice, by day 10

How did the “outcome of mice given cisplatinum 20 mg/kg with PBS” value turn out when cisplatinum was run?
Its value is “died or experienced >25% weight loss”.
